Values of other authors as cited in US20100105761A1, “TREATMENT OF PAIN THROUGH EXPRESSION OF OPIOID RECEPTORS” (priority 2006, published 2010).

The chains behind the UniProt entries cited, without tags or fusion partners.
UniProt P35372, whole entry: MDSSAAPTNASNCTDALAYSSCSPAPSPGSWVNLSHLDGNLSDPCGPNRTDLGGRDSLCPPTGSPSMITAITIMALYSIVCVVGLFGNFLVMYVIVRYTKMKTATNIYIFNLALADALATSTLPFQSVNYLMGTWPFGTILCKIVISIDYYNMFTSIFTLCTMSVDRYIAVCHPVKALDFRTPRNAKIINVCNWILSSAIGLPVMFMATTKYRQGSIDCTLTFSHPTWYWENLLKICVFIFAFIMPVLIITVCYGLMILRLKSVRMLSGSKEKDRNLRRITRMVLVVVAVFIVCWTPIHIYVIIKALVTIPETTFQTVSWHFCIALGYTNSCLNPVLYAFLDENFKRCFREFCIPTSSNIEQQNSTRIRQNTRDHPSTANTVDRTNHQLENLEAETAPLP
UniProt P41143, whole entry: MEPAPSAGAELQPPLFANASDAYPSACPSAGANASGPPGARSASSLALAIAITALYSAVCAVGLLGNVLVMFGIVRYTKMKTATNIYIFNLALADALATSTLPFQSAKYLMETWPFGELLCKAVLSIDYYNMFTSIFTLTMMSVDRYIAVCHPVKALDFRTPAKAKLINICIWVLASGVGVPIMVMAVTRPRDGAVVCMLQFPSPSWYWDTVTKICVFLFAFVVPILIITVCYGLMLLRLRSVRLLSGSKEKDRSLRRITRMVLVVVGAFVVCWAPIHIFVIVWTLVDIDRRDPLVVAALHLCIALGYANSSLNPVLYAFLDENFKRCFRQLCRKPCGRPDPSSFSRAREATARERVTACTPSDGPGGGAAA

Experiments:
μ-receptor = μ-receptor (Homo sapiens, UniProt P35372)
[1] = target: human recombinant DOR-1 receptor (Homo sapiens, UniProt P41143)

Substance	affinity / selectivity for μ-receptors (in words) (μ-receptor)	binding to human recombinant DOR-1 receptor [1]
endomorphin-2	highly selective	–
DPDPE	–	bind
Endomorphin-1	highly selective	–
